Laboratory results taken from patent US9890152B2 (Genentech, Inc., priority 2012, dated 2018).

Protein sequences, listed by entry. Tags and fused reporters are not part of them. Residues count along the entry.
UniProt P00533, 25-1210 T790M/L858R limits assumed: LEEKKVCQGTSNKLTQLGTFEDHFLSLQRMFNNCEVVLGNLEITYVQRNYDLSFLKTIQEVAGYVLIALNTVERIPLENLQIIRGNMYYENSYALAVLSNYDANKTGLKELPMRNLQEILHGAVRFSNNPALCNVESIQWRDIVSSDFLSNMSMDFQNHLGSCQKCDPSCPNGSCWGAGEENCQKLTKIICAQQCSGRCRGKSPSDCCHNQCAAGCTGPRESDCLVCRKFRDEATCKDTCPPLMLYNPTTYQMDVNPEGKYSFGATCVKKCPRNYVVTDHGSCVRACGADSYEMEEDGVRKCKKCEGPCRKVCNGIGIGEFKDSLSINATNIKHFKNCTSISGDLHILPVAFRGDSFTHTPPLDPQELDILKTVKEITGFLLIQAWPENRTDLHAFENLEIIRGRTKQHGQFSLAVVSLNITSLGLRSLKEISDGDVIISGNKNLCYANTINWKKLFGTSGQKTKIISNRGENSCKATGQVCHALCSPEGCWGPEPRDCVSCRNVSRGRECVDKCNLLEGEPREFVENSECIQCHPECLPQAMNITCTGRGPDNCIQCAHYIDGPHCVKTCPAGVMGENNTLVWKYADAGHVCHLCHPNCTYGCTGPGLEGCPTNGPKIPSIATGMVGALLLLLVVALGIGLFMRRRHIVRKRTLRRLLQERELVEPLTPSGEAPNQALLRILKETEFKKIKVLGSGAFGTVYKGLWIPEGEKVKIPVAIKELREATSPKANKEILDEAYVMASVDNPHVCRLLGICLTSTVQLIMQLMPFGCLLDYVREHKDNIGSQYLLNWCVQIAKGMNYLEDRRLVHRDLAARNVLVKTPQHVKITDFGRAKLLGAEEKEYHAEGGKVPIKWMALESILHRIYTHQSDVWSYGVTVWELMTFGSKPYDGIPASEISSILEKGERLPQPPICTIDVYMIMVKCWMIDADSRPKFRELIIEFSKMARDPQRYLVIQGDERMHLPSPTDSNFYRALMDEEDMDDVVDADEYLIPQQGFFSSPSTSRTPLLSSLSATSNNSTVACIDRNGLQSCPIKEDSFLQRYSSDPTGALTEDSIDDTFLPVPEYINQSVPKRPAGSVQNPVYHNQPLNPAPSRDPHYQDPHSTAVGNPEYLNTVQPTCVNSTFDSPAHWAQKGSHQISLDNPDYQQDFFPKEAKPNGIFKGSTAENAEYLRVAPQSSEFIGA

Biological target: EGFR T790M L858R (Homo sapiens, UniProt P00533, L858R/T790M)
Test: biochemical
Conditions: EGFR(T790M/L858R) Ki (μM), 5 μM ATP, 30 min, room temperature; apparent Ki (Morrison) converted by Cheng-Prusoff, Km of ATP 1.3 μM

| Compound | Ki |
| --- | --- |
| Cc1nc2cnc(Nc3ccnc(-c4ccc(C(N)=O)nc4)n3)cc2n1C(C)C [Example 313, 5-[4-(1-Isopropyl-2-methyl-1H-imidazo[4,5-c]pyridin-6-ylamino)pyrimidin-2-yl]pyridine-2-carboxylic acid amide] | 0.266 µM |
| CNc1ccc(-c2nccc(Nc3cc4c(cn3)nc(C)n4C(C)C)n2)cn1 [Example 314, (1-Isopropyl-2-methyl-1H-imidazo[4,5-c]pyridin-6-yl)-[2-(6-methylaminopyridin-3-yl)pyrimidin-4-yl]amine] | 0.0325 µM |
| CC(=O)N(C)c1ncc(-c2nccc(Nc3cc4c(cn3)nc(C)n4C(C)C)n2)s1 [Example 315, N-{5-[4-(1-Isopropyl-2-methyl-1H-imidazo[4,5-c]pyridin-6-ylamino)pyrimidin-2-yl]thiazol-2-yl}-N-methylacetamide] | 0.0205 µM |
| Cc1nc2cnc(Nc3ccnc(-c4cnc(S(=O)(=O)c5ccccc5)n4C)n3)cc2n1C(C)C [Example 316, [2-(2-Benzenesulfonyl-3-methyl-3H-imidazol-4-yl)pyrimidin-4-yl]-(1-isopropyl-2-methyl-1H-imidazo[4,5-c]pyridin-6-yl)amine] | 0.836 µM |
| Cc1nc2cnc(Nc3ccnc(-c4cnc(N(C)C)s4)n3)cc2n1C(C)C [Example 317, [2-(2-Dimethylaminothiazol-5-yl)pyrimidin-4-yl]-(1-isopropyl-2-methyl-1H-imidazo[4,5-c]pyridin-6-yl)amine] | 0.00178 µM |
| Cc1nc2cnc(Nc3ccnc(N4CNC(=O)C4)n3)cc2n1C(C)C [Example 318, 1-[4-(1-Isopropyl-2-methyl-1H-imidazo[4,5-c]pyridin-6-ylamino)pyrimidin-2-yl]imidazolidin-4-one] | 0.462 µM |
| COC1CCN(c2nccc(Nc3cc4[nH]ccc4cn3)n2)CC1 [Example 319] | 0.525 µM |
| CC(C)n1cc(NC(=O)CO)c2cnc(Nc3ccnc(-c4cnn(S(=O)(=O)C5CC5)c4)n3)cc21 [Example 328, N-(6-((2-(1-(Cyclopropylsulfonyl)-1H-pyrazol-4-yl)pyrimidin-4-yl)amino)-1-isopropyl-1H-pyrrolo[3,2-c]pyridin-3-yl)-2-hydroxyacetamide] | 0.000928 µM |
| Cc1nc2cnc(Nc3ccnc(NCC(C)(C)c4nnc[nH]4)n3)cc2n1C(C)C [Example 329, N^4-(1-Isopropyl-2-methyl-1H-imidazo[4,5-c]pyridin-6-yl)-N^2-(2-methyl-2-(4H-1,2,4-triazol-3-yl)propyl)pyrimidine-2,4-diamine] | 0.174 µM |
| CC(C)n1cc(N2CCOCC2)c2cnc(Nc3ccnc(-c4cnn(S(=O)(=O)C5CC5)c4)n3)cc21 [Example 330, N-(2-(1-(Cyclopropylsulfonyl)-1H-pyrazol-4-yl)pyrimidin-4-yl)-1-isopropyl-3-morpholino-1H-pyrrolo[3,2-c]pyridin-6-amine] | 0.0034 µM |
| CC(C)n1cc(-c2cnn(CC(N)=O)c2)c2cnc(Nc3ccnc(-c4cnn(S(=O)(=O)C5CC5)c4)n3)cc21 [Example 331, 2-(4-(6-((2-(1-(Cyclopropylsulfonyl)-1H-pyrazol-4-yl)pyrimidin-4-yl)amino)-1-isopropyl-1H-pyrrolo[3,2-c]pyridin-3-yl)-1H-pyrazol-1-yl)acetamide] | 0.000828 µM |
| COC1CCN(c2nccc(Nc3cc4c(cn3)c(S(C)(=O)=O)cn4C(C)C)n2)CC1 [Example 333, 1-Isopropyl-N-(2-(4-methoxypiperidin-1-yl)pyrimidin-4-yl)-3-(methylsulfonyl)-1H-pyrrolo[3,2-c]pyridin-6-amine] | 0.0443 µM |
| C=C(F)n1cc(-c2nccc(Nc3cc4c(cn3)nc(CO)n4C(C)C)n2)cn1 [Example 334, (6-((2-(1-(1-Fluorovinyl)-1H-pyrazol-4-yl)pyrimidin-4-yl)amino)-1-isopropyl-1H-imidazo[4,5-c]pyridin-2-yl)methanol] | 0.0279 µM |
| Cc1nc2cnc(Nc3ccnc(-c4cnn(CC5CC5)c4Cl)n3)cc2n1C(C)C [Example 336, N-(2-(5-Chloro-1-(cyclopropylmethyl)-1H-pyrazol-4-yl)pyrimidin-4-yl)-1-isopropyl-2-methyl-1H-imidazo[4,5-c]pyridin-6-amine] | 0.0378 µM |
| Cc1nc2cnc(Nc3ccnc(-c4cnn(CC(C)(C)O)c4)n3)cc2n1C(C)C [Example 341, 1-(4-(4-((1-Isopropyl-2-methyl-1H-imidazo[4,5-c]pyridin-6-yl)amino)pyrimidin-2-yl)-1H-pyrazol-1-yl)-2-methylpropan-2-ol] | 0.107 µM |
| Cc1nc2cnc(Nc3ccnc(-c4cnn(C(C)(C)CO)c4)n3)cc2n1C(C)C [Example 342, 2-(4-(4-((1-Isopropyl-2-methyl-1H-imidazo[4,5-c]pyridin-6-yl)amino)pyrimidin-2-yl)-1H-pyrazol-1-yl)-2-methylpropan-1-ol] | 0.0807 µM |
| Cc1nc2cnc(Nc3ccnc(SCC(C)(C)C(N)=O)n3)cc2n1C(C)C [Example 343, 3-((4-((1-Isopropyl-2-methyl-1H-imidazo[4,5-c]pyridin-6-yl)amino)pyrimidin-2-yl)thio)-2,2-dimethylpropanamide] | 0.621 µM |

| Compound | Ki |
| --- | --- |
| Cc1nc2cnc(Nc3ccnc(-c4cnn(CC5CCNC5)c4)n3)cc2n1C(C)C (stereo not drawn) [Example 344, 1-Isopropyl-2-methyl-N-(2-(1-(pyrrolidin-3-ylmethyl)-1H-pyrazol-4-yl)pyrimidin-4-yl)-1H-imidazo[4,5-c]pyridin-6-amine] | 0.0455 µM |
| Cc1n[nH]c(C)c1-c1cn(C(C)C)c2cc(Nc3ccnc(-c4cnn(S(=O)(=O)C5CC5)c4)n3)ncc12 [Example 345, N-(2-(1-(Cyclopropylsulfonyl)-1H-pyrazol-4-yl)pyrimidin-4-yl)-3-(3,5-dimethyl-1H-pyrazol-4-yl)-1-isopropyl-1H-pyrrolo[3,2-c]pyridin-6-amine] | 0.0145 µM |
| Cc1cn[nH]c1-c1cn(C(C)C)c2cc(Nc3ccnc(-c4cnn(S(=O)(=O)C5CC5)c4)n3)ncc12 [Example 346, N-(2-(1-(cyclopropylsulfonyl)-1H-pyrazol-4-yl)pyrimidin-4-yl)-1-isopropyl-3-(4-methyl-1H-pyrazol-5-yl)-1H-pyrrolo[3,2-c]pyridin-6-amine] | 0.00421 µM |
| Cc1cn[nH]c1-c1cn(C(C)C)c2cc(Nc3ccnc(N4CCC(O)C(C)(C)C4)n3)ncc12 (stereo not drawn) [Example 347, 1-(4-((1-Isopropyl-3-(4-methyl-1H-pyrazol-5-yl)-1H-pyrrolo[3,2-c]pyridin-6-yl)amino)pyrimidin-2-yl)-3,3-dimethylpiperidin-4-ol] | 0.00576 µM |
| CO[C@H]1CCN(c2nccc(Nc3cc4c(cn3)c(-c3nn(CCO)cc3C)cn4C(C)C)n2)C[C@H]1F [Example 348, 2-(3-(6-((2-((3R,4S)-3-Fluoro-4-methoxypiperidin-1-yl)pyrimidin-4-yl)amino)-1-isopropyl-1H-pyrrolo[3,2-c]pyridin-3-yl)-4-methyl-1H-pyrazol-1-yl)ethanol] | 0.00296 µM |
| COC1CCN(c2nccc(Nc3cc4c(cn3)nc(C)n4C(C)CC#N)n2)CC1 (stereo not drawn) [Example 349, 3-(6-((2-(4-Methoxypiperidin-1-yl)pyrimidin-4-yl)amino)-2-methyl-1H-imidazo[4,5-c]pyridin-1-yl)butanenitrile] | 0.0609 µM |
| COC1CCN(c2nccc(Nc3cc4c(cn3)nc(C)n4C(C)CC(N)=O)n2)CC1 (stereo not drawn) [Example 352, 3-(6-((2-(4-Methoxypiperidin-1-yl)pyrimidin-4-yl)amino)-2-methyl-1H-imidazo[4,5-c]pyridin-1-yl)butanamide] | 0.107 µM |
| COC1CCN(c2nccc(Nc3cc4c(cn3)nc(C)n4C(C)c3ccc(C#N)cc3)n2)CC1 (stereo not drawn) [Example 353, 4-(1-(6-((2-(4-Methoxypiperidin-1-yl)pyrimidin-4-yl)amino)-2-methyl-1H-imidazo[4,5-c]pyridin-1-yl)ethyl)benzonitrile] | 0.0393 µM |
| COC1CCN(c2nccc(Nc3cc4c(cn3)nc(C)n4C(C)c3ccc(C(N)=O)cc3)n2)CC1 (stereo not drawn) [Example 354, 4-(1-(6-((2-(4-Methoxypiperidin-1-yl)pyrimidin-4-yl)amino)-2-methyl-1Himidazo[4,5-c]pyridin-1-yl)ethyl)benzamide] | 0.305 µM |
| COC1CCN(c2nccc(Nc3cc4c(cn3)nc(C)n4Cc3cccc4[nH]ncc34)n2)CC1 [Example 355, 1-(1H-Indazol-4-ylmethyl)-N-[2-(4-methoxy-1-piperidyl)pyrimidin-4-yl]-2-methyl-imidazo[4,5-c]pyridin-6-amine] | 0.046 µM |
| COC1CCN(c2nccc(Nc3cc4c(cn3)nc(C)n4Cc3ccccc3)n2)CC1 [Example 356, 1-Benzyl-N-[2-(4-methoxy-1-piperidyl)pyrimidin-4-yl]-2-methyl-imidazo[4,5-c]pyridin-6-amine] | 0.0477 µM |
| COC1CCN(c2nccc(Nc3cc4c(cn3)nc(C)n4[C@@H](C)c3ccc4[nH]cnc4c3)n2)CC1 [Example 357, 1-[(1S)-1-(1H-Benzimidazol-5-yl)ethyl]-N-[2-(4-methoxy-1-piperidyl)pyrimidin-4-yl]-2-methyl-imidazo[4,5-c]pyridin-6-amine] | 0.141 µM |
| COC1CCN(c2nccc(Nc3cc4c(cn3)nc(C)n4Cc3cccc4[nH]cnc34)n2)CC1 [Example 358, 1-((1H-Benzo[d]imidazol-4-yl)methyl)-N-(2-(4-methoxypiperidin-1-yl)pyrimidin-4-yl)-2-methyl-1H-imidazo[4,5-c]pyridin-6-amine] | 0.201 µM |
| COC1CCN(c2nccc(Nc3cc4c(cn3)nc(C)n4Cc3ccc4[nH]cnc4c3)n2)CC1 [Example 359, 1-((1H-Benzo[d]imidazol-5-yl)methyl)-N-(2-(4-methoxypiperidin-1-yl)pyrimidin-4-yl)-2-methyl-1H-imidazo[4,5-c]pyridin-6-amine] | 0.148 µM |
| Cc1cc(-c2nccc(Nc3cc4c(cn3)nc(C)n4C(C)C)n2)sn1 [Example 360, 1-Isopropyl-2-methyl-N-(2-(3-methylisothiazol-5-yl)pyrimidin-4-yl)-1H-imidazo[4,5-c]pyridin-6-amine] | 0.089 µM |
| Cc1nc2cnc(Nc3ccnc(-c4cnc(CO)s4)n3)cc2n1C(C)C [Example 361, (5-(4-((1-Isopropyl-2-methyl-1H-imidazo[4,5-c]pyridin-6-yl)amino)pyrimidin-2-yl)thiazol-2-yl)methanol] | 0.633 µM |
